In this test the test system is Vibrio cholerae MCM B-322. Kind of test: Antibacterial activity, simple disc diffusion (agar diffusion) technique. The note with it: agar plates; chrysogenazine 5-30 mcg/disc; penicillin 10 units/disc, amphicillin 10 mcg/disc, streptomycin 10 mcg/disc. (In general: Agar diffusion results depend on both activity and mobility in agar.)

The zone of inhibition is the extent of the growth-free halo in a diffusion test.

Each structure is given as a SMILES string.

`CC1(C)S[C@@H]2[C@H](NC(=O)[C@H](N)c3ccccc3)C(=O)N2[C@H]1C(=O)O` [amphicillin] yielded a zone of inhibition of 0 mm. For `CC(C)=CCc1[nH]c2ccccc2c1C=C1NC(=O)C(C)NC1=O` (centres unmarked) [chrysogenazine, 3,1′-didehydro-3[2″(3′″,3′″-dimethyl-prop-2-enyl)-3″-indolylmethylene]-6-methylpiperazine-2,5-dione] the value was 4-5 mm.
